# Target: human β1-AR (Homo sapiens, UniProt P08588)
# By UniProt entry, the sequences of proteins in these tests, tags left out.
# UniProt P08588, whole entry: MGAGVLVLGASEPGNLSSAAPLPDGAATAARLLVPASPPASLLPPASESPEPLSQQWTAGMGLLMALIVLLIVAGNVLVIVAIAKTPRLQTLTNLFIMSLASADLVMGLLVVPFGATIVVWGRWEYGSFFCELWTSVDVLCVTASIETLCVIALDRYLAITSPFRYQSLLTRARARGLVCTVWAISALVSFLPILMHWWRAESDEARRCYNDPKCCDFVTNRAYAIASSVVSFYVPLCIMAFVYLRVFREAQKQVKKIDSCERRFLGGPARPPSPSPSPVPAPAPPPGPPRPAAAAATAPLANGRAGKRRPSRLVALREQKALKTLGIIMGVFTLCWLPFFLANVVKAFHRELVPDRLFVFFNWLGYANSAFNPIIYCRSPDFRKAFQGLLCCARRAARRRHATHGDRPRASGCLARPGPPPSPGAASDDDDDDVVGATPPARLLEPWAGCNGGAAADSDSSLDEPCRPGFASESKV
# Assay: 3H-CGP12177 whole-cell binding in CHO-β1 cells
compound,measurement,value
"N#Cc1cc(OCCOCC2CC2)ccc1OCC(O)CNCCNC(=O)Nc1ccc(O)cc1 (stereo not shown) [LK204-545, reference compound]",Kd,6.76 nM

# From paper PMC5471521, “Novel selective β1-adrenoceptor antagonists for concomitant cardiovascular and respiratory disease” (The FASEB Journal, 2017)
